Data on one molecule can be found in patent publication US11964973B2 (priority 2019, dated 2024).

The assay relates to Human venous whole blood (IFN-γ). Nature of the assay: Human whole blood IFN-γ assay. To be noted: read-out: INFg Whole Blood Normalized Agonist EC50, anti-CD3 plus anti-CD28, 24 hours. Type of assay: cell-based.

By EC50 is commonly meant the concentration needed to bring the measured effect to its halfway point.

As for `C[C@H]1CN(c2cc(=O)n(C)c3ccc(C#N)nc23)CC[C@@H]1Oc1cccc(C(C)(C)C)c1`, the concentration for a half-maximal effect (EC50) amounted to 19 µM.
